This note sets out measurements from ChEMBL document CHEMBL6120983, “Synthesis and Structure-Activity Relationship of Covalent Inhibitors of SARS-CoV-2 Papain-Like Protease with Antiviral Potency” (Bioorg Med Chem Lett, 2025).

The pIC50 is −log10 of the IC50, conventionally taken in molar units.

This test addresses Replicase polyprotein 1ab (Severe acute respiratory syndrome coronavirus 2, UniProt P0DTD1). Nature of the test: Inhibition of SARS-CoV-2 papain-like protease using Z-Arg-Leu-Arg-Gly-Gly-AMC as substrate incubated for 15 mins.

pIC50: −log10 of the molar value.

Compound `COC(=O)/C=C/C(=O)NNC(=O)CCc1ccccc1C(=O)N[C@H](C)c1cccc2ccccc12` had a pIC50 of 6.72.
The value for `COC(=O)/C=C\C(=O)NNC(=O)CCc1ccccc1C(=O)N[C@H](C)c1cccc2ccccc12` was 6.82.
